In ChEMBL document CHEMBL4811262, “Parallel discovery of selective and dual inhibitors of tryptophan dioxygenases IDO1 and TDO2 with a newly-modified enzymatic assay” (Bioorg Med Chem, 2021) one finds IC50 data, which are given here for one compound.

Protein sequences, listed by entry. Tags and fused reporters are not part of them. Lines headed by an entry give the natural chain unless they say otherwise; changes in a name come on top.
UniProt P48775: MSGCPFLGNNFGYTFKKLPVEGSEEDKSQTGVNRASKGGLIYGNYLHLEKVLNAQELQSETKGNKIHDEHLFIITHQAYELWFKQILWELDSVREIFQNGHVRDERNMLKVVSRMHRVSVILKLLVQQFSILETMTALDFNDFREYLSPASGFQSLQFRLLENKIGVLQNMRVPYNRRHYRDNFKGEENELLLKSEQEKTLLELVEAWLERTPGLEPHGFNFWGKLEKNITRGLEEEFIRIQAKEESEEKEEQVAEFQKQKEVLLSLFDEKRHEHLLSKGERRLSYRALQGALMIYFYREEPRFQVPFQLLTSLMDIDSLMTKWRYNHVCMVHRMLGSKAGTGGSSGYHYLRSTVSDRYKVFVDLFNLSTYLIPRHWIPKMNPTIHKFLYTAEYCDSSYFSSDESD

For assay [1], the target named is T1, Tryptophan 2,3-dioxygenase (Homo sapiens, UniProt P48775). Put plainly: Inhibition of recombinant human TDO2 expressed in Escherichia coli BL21 (DE3) assessed as reduction in N-formylkynurenine formation using L-tryptophan as substrate incubated for 30 mins by methylene blue reagent based concurrent assay.
Assay [2] concerns the target T1, Tryptophan 2,3-dioxygenase. Put plainly: Inhibition of recombinant human TDO2 expressed in Escherichia coli BL21 (DE3) assessed as reduction in N-formylkynurenine formation using L-tryptophan as substrate incubated for 30 mins by methylene blue reagent based assay.

In general, IC50 refers to the midpoint of a concentration-inhibition curve. Turning to `Fc1ccc2c(/C=C/c3cccnc3)c[nH]c2c1`, the half-inhibitory concentration (IC50) in assay [1] was determined as 0.31 µM; in assay [2] it was 0.11 µM.
